Chains of the proteins cited; added tags and fusions are not shown. Lines headed by an entry give the natural chain unless they say otherwise; changes in a name come on top.
UniProt Q9Y233: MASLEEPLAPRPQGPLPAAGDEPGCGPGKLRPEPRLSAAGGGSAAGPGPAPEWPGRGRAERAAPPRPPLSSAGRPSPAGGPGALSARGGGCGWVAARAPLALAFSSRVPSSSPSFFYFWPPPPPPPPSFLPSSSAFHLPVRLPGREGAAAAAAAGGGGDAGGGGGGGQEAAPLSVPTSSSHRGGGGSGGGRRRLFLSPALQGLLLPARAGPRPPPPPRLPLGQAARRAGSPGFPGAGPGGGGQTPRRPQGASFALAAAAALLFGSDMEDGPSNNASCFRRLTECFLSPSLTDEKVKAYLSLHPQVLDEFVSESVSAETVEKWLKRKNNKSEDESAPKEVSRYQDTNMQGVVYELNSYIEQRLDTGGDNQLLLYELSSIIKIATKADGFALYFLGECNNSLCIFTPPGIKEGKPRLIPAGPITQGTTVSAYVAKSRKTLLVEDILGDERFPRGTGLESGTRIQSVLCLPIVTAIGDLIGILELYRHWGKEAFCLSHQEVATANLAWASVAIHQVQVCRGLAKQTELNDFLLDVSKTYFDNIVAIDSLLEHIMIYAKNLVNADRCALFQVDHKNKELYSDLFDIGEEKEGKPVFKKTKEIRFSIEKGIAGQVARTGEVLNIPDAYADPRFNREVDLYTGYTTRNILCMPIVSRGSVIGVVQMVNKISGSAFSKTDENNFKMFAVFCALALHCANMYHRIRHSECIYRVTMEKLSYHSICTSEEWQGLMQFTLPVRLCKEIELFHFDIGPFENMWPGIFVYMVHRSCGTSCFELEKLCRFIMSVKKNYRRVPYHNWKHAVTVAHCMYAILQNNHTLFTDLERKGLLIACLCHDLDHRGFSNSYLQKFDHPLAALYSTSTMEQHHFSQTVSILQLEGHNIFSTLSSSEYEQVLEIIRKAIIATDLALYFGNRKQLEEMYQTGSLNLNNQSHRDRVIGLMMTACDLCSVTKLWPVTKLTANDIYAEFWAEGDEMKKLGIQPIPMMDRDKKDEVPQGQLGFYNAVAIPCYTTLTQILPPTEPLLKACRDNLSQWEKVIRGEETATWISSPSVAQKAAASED
UniProt Q14123, whole entry, looked up: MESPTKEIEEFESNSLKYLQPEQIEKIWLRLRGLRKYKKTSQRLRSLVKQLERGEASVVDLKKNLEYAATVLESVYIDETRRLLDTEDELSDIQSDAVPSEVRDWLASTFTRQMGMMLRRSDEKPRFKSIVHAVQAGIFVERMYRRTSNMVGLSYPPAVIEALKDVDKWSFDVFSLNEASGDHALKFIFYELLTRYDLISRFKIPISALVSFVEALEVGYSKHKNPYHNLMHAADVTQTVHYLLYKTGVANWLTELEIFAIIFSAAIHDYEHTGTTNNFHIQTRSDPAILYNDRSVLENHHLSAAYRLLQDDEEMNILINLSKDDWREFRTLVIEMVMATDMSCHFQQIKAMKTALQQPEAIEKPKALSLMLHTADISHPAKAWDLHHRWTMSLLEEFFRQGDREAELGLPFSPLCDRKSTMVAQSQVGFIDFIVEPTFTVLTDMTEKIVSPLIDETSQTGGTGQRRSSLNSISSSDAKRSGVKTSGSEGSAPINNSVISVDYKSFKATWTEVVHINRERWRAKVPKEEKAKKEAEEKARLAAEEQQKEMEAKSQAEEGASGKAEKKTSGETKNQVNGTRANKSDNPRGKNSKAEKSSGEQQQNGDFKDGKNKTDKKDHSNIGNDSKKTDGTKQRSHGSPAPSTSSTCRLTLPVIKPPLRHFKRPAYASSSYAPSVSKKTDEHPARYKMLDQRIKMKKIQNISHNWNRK
UniProt O00408, whole entry, looked up: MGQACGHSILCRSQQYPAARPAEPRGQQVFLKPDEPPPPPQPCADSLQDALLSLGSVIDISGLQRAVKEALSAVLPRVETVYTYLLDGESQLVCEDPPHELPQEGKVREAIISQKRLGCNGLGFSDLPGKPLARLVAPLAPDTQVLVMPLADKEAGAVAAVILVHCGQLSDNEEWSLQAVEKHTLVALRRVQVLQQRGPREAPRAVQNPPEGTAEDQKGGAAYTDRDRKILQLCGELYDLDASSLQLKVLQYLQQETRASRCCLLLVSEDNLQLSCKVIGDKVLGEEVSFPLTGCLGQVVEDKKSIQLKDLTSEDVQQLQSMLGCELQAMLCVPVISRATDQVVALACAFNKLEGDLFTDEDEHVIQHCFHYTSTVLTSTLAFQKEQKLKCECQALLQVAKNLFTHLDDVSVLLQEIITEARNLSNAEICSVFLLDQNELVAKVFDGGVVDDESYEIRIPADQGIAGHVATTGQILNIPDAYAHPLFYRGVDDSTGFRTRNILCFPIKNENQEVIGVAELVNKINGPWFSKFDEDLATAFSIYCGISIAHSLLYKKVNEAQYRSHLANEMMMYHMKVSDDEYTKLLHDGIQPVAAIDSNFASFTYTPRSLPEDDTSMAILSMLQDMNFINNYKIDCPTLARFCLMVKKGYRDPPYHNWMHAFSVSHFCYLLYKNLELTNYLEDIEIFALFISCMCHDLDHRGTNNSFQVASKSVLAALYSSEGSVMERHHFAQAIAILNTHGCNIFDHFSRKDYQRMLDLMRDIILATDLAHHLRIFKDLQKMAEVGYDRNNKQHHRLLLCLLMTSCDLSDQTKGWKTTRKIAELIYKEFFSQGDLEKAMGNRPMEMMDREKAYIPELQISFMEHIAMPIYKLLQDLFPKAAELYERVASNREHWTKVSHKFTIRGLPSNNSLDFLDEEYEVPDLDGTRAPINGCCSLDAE
UniProt Q13946: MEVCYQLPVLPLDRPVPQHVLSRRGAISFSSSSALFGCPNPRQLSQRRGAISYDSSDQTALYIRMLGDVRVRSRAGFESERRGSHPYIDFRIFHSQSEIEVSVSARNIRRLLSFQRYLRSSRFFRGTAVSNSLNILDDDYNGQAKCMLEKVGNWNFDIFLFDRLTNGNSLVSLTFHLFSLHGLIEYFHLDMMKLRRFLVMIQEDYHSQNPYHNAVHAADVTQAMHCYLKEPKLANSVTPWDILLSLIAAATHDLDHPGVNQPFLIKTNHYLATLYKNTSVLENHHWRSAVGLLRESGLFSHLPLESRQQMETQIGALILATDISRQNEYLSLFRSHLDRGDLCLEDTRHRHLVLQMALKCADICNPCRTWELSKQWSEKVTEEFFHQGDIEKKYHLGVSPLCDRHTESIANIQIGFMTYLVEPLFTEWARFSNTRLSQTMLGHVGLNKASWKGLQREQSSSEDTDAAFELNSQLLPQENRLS
UniProt Q13370: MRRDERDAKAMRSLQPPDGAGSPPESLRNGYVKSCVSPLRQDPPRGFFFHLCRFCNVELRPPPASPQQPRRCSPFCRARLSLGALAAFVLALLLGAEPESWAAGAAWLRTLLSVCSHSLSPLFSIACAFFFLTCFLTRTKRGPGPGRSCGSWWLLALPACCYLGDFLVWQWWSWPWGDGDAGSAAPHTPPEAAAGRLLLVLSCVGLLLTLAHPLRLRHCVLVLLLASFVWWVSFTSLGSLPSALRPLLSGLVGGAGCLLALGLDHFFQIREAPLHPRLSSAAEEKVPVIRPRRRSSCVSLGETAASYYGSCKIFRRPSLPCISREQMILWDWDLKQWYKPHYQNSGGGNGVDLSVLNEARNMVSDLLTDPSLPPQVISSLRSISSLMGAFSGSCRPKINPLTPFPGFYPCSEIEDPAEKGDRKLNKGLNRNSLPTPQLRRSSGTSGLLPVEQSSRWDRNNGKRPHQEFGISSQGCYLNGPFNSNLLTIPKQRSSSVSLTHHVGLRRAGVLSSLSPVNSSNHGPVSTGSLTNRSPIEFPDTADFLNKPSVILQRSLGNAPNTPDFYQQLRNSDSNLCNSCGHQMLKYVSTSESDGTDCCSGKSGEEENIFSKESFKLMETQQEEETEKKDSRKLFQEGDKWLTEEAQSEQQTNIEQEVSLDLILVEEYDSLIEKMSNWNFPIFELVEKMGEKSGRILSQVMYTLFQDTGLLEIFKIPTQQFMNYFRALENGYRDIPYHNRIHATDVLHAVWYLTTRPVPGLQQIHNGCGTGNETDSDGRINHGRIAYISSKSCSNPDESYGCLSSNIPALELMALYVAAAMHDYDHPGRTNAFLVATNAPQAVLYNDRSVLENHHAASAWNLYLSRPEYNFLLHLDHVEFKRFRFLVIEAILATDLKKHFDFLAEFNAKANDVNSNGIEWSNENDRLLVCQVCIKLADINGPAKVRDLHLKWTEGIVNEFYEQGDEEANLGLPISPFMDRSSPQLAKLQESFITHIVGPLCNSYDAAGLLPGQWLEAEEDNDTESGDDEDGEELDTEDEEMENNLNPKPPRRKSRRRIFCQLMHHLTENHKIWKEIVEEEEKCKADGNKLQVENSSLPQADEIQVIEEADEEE

According to patent publication US20240254082A1, “Substituted Isoindoline-1, 3-diketone PDE4 Inhibitor and Pharmaceutical Application Thereof” (SUZHOU INTRAGRAND PHARMA CO., LTD, priority 2021, published 2024):

Columns and labels:
Type in all cases: biochemical
PDE5A1 = PDE5A1 (Homo sapiens, UniProt O76074); assay: Selective inhibitory activity assay, PDE5A1
Protocol: (§1) 7. Selective inhibitory activity assay for PDE1, 2, 3, 5, 7, 10 and 11 enzymes
(§2) The selective specificity of compounds for PDE4 was assessed by assaying single concentrations of the compounds. For example, PDE1a enzyme, PDElc enzyme, PDE2a enzyme, PDE3a enzyme, PDE3b enzyme, PDE5a1 enzyme, PDE7a enzyme, PDE7b enzyme, PDE10a1 enzyme and PDE11a4 enzyme were tested. The selective inhibitory effects of different compounds on the enzymatic activities of PDEIC, PDE2A, PDE3B, PDE5A1, PDE7A, and PDE10A1 at concentrations of 10 μM and 1 μM, respectively, are shown in the table below: […]

PDE10A1 = PDE10A1 (Homo sapiens, UniProt Q9Y233); assay: Selective inhibitory activity assay, PDE10A1
Protocol: as §1, §2

PDE1C = PDE1C (Homo sapiens, UniProt Q14123); assay: Selective inhibitory activity assay, PDE1C
Protocol: as §1, §2

PDE2A = PDE2A (Homo sapiens, UniProt O00408); assay: Selective inhibitory activity assay, PDE2A
Protocol: as §1, §2

PDE7A = PDE7A (Homo sapiens, UniProt Q13946); assay: Selective inhibitory activity assay, PDE7A
Protocol: as §1, §2

PDE3B = PDE3B (Homo sapiens, UniProt Q13370); assay: Selective inhibitory activity assay, PDE3B
Protocol: as §1, §2

**Q.** Which “Inhibition rate (%) of PDE5A1” value (PDE5A1; 1 μM) does the source give for `CCCCCc1ccc(NC(=O)C2CC2)c2c1C(=O)N([C@H](CS(C)(=O)=O)c1ccc(OC)c(OCC)c1)C2=O` [Example 6, (S)-2-[1-(3-ethoxy-4-methoxyphenyl)-2-alkylsulfonylethyl]-4-cyclopropanamido-7-pentyl isoindoline-1,3-diketone] here?
**A.** 34.22%

**Q.** What about the “Inhibition rate (%) of PDE5A1” value (PDE5A1; 10 μM) of the same molecule?
**A.** 34.00%

**Q.** And the “Inhibition rate (%) of PDE10A1” value (PDE10A1; 1 μM)?
**A.** 4.84%

**Q.** And the “Inhibition rate (%) of PDE10A1” value (PDE10A1; 10 μM)?
**A.** −16.18%

**Q.** What about the “Inhibition rate (%) of PDE1C” value (PDE1C; 1 μM) of the same molecule?
**A.** 0%

**Q.** What about the “Inhibition rate (%) of PDE1C” value (PDE1C; 10 μM) of the same molecule?
**A.** 17.97%

**Q.** What about the “Inhibition rate (%) of PDE2A” value (PDE2A; 1 μM) of the same molecule?
**A.** 0%

**Q.** And the “Inhibition rate (%) of PDE2A” value (PDE2A; 10 μM)?
**A.** 3.41%

**Q.** What about the “Inhibition rate (%) of PDE7A” value (PDE7A; 1 μM) of the same molecule?
**A.** 0%

**Q.** And the “Inhibition rate (%) of PDE7A” value (PDE7A; 10 μM)?
**A.** 13.83%

**Q.** And the “Inhibition rate (%) of PDE3B” value (PDE3B; 1 μM)?
**A.** 0.94%

**Q.** And the “Inhibition rate (%) of PDE3B” value (PDE3B; 10 μM)?
**A.** −0.44%
